AlphaSeq binding of Ab-14 light chain variants to a spike HR2 peptide

Target: peptide PDVDLGDISGINAS, taken from heptad repeat 2 (HR2) of SARS-CoV-2 spike.

Each scFv is VH, a 15-residue (Gly4Ser)3 linker, VL, as in the parent Ab-14, and differs from it in the CDRs of the light chain only.
VH: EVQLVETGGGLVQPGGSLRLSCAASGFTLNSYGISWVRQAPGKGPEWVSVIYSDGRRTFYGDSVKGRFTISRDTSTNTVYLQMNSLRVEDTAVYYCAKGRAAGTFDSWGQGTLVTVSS
VL: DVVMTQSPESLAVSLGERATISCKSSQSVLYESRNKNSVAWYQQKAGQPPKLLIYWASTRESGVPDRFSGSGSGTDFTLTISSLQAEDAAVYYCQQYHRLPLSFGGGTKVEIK

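The parent was found by panning a naive human phage display library on the peptide. AAYL50 was designed without a model: most single CDR substitutions and a random sample of double and triple ones. The scFvs were displayed on barcoded MATa yeast, the peptide on MATalpha yeast. After mating in shaken culture at 30 °C for 16 h, diploids were selected and their barcode pairs sequenced. Each replicate has its own calibration line, from reference interactions of the BCL2 family. The assay was run in three technical replicates.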

Each variant is given by its three light chain CDRs, as the data file delimits them; those of the parent are KSSQSVLYESRNKNSVA, WASTRES, QQYHRLPLS. Scale: log10 of Kd in nM, estimated from mating counts; low values are strong binders. A mean of the replicates is given; it leaves out those without a signal. A pair that was not seen in that replicate is written "ND"; this usually means weak binding, but a binder can also be missed. Empty control strains, which show no peptide, gave a signal in 18% of pairings with library AAYL50; the median was 4.19 and 95% of these signals were weaker than 2.99. No background was subtracted. For each scFv, signals with the empty controls are counted beside the result, with their mean in brackets.

| # | CDR-L1 | CDR-L2 | CDR-L3 | log10 Kd, replicates | mean, log10 nM | empty controls |
|---|---|---|---|---|---|---|
| 1 | KSSKSVLYESRNKNVVA | WASTRES | FQYHRLPLS | ND / ND / ND | ND | 0 of 9 |
| 2 | TSSQSVLYESRNKNSVA | WWSTRES | QQYHRIPLS | ND / ND / 5.42 | 5.42 | 2 of 9 (4.57) |
| 3 | KSSQSVLYESRNKNSCA | WASPRES | WQYHRLPLS | ND / ND / ND | ND | 0 of 9 |
| 4 | KSSQSVLYESRNYNMLA | WASTRES | QQYHRLPLS | ND / 3.25 / 5.19 | 4.22 | 3 of 9 (4.25) |
| 5 | KSSQSVLMFSRNKNSVA | WASTRAS | QQYHRLPLS | 1.91 / 2.19 / 2.21 | 2.10 | 1 of 9 (3.24) |
| 6 | KSSQSVDYESRMKNSVA | WASTRES | QQYMRLPLS | ND / ND / 4.30 | 4.30 | 1 of 9 (3.37) |
| 7 | KSSQSVLQESRNKNSVG | WASTRGS | QQYHRLPLS | ND / 3.09 / ND | 3.09 | 0 of 9 |
| 8 | KSSQSVLDESRNKNSVA | WASTRES | QQYHRSALS | 1.62 / 2.25 / 1.66 | 1.84 | 1 of 9 (3.95) |
| 9 | ANSQSVLYESRNKNSVA | WASTRWS | QQYHRLPLS | 3.46 / 2.49 / 3.01 | 2.98 | 0 of 9 |
| 10 | GSSQSVLYNSRTKNSVA | WASTRES | QQYHRLPLS | 1.92 / 1.72 / 1.89 | 1.84 | 2 of 9 (4.00) |
| 11 | KSSQSVLYESRNHNSFA | WASTRES | QQYWRLPLS | 2.81 / 2.97 / 3.53 | 3.10 | 2 of 9 (3.71) |
| 12 | KSSQSVLYESRNKNSVA | GASTRES | QQYHCLPLS | 0.48 / 0.62 / 0.54 | 0.55 | 3 of 9 (4.28) |
| 13 | KSSQSVLYESRNKNSDA | WGSTRES | MQYHRLPLS | ND / ND / ND | ND | 2 of 9 (4.79) |
| 14 | KSSQSVLYESRHKNSVA | WASTRIS | QQYHRGPLS | ND / 1.83 / 2.20 | 2.01 | 0 of 9 |
| 15 | KSSQSVLIESRNKNSVA | WASMRES | QQFHRLPLS | 1.40 / 3.15 / 1.74 | 2.10 | 0 of 9 |
| 16 | KSSQSVVYTSRNKNSVA | WASTRMS | QQYHRLPLS | 1.54 / 1.45 / 1.58 | 1.52 | 2 of 9 (3.73) |
| 17 | KSSQSVLKESHNKNSVA | WASTRES | QQWHRLPLS | ND / 4.59 / ND | 4.59 | 3 of 9 (4.09) |
| 18 | KSSQSVLYESCNKNSKA | WASTRIS | QQYHRLPLS | 3.94 / 3.93 / 4.08 | 3.98 | 6 of 9 (5.02) |
| 19 | KSSQSDLYESRNKNSVA | WAITRES | QQYHRLPLG | 2.08 / 1.80 / 2.00 | 1.96 | 4 of 9 (3.81) |
| 20 | KSSQSVLYESRNKNSVA | WASTRES | QQDHRLPGS | ND / ND / ND | ND | 0 of 9 |
| 21 | KSSQSVLYESRNKNSVA | WASTTES | QQYHHLPAS | ND / 2.81 / ND | 2.81 | 0 of 9 |
| 22 | KSSQSVLYESRNKRSVA | WASTRRS | QQYHRQPLS | 3.33 / ND / ND | 3.33 | 1 of 9 (4.30) |
| 23 | KSSQSVLYEYRNKNAVA | WASTRES | QQYHRLPDS | ND / ND / ND | ND | 0 of 9 |
| 24 | KSSCSVLYESRNKNSVA | WYSTRES | QQYHRLALS | ND / 3.56 / 3.76 | 3.66 | 2 of 9 (2.91) |
| 25 | KSSQSVLYESRNKNSVA | KWSTRPS | QQYHRLPLS | ND / ND / 5.09 | 5.09 | 0 of 9 |
| 26 | KSSQAVLYESREKNCVA | WASTRES | QQYHRLPLS | ND / 2.54 / 3.01 | 2.77 | 0 of 9 |
| 27 | KSSQSVLYESRNKNMVA | WASTRES | QQYHRLITS | ND / ND / ND | ND | 0 of 9 |
| 28 | KSSQSVLYESKNKNSVA | WASTRES | QQYHRLPLS | 1.23 / 1.33 / 1.24 | 1.27 | 1 of 9 (3.39) |
| 29 | HSSESVLYESRNKNSVA | WASTRES | QQYHHLPLS | 0.52 / 0.67 / 0.64 | 0.61 | 1 of 9 (4.50) |
| 30 | YSSQSVLYESRNPNSVA | WASTRES | QQYWRLPLS | 3.06 / 4.07 / 3.80 | 3.64 | 1 of 9 (4.55) |
| 31 | KSSISVLYESRNKNSVA | DASTRES | QQYHRLPLS | -0.29 / 0.06 / -0.17 | -0.13 | 1 of 9 (3.24) |
| 32 | KSSQSVLYESRNKQSVA | WAYTREY | QQYHRLPLS | 2.12 / 1.56 / 2.69 | 2.12 | 0 of 9 |
| 33 | KSSQSVLYESRNKLSVA | DASTRES | QQYHRLPLS | ND / 3.86 / ND | 3.86 | 0 of 9 |
| 34 | KSSQSVLYESRNKLSVT | WASTREM | QQYHRLPLS | ND / ND / ND | ND | 3 of 9 (4.57) |

Repeated from above, the 4 best binders with a signal in all replicates:

| CDR-L1 | CDR-L2 | CDR-L3 | log10 Kd, replicates | mean, log10 nM | empty controls |
|---|---|---|---|---|---|
| KSSISVLYESRNKNSVA | DASTRES | QQYHRLPLS | -0.29 / 0.06 / -0.17 | -0.13 | 1 of 9 (3.24) |
| KSSQSVLYESRNKNSVA | GASTRES | QQYHCLPLS | 0.48 / 0.62 / 0.54 | 0.55 | 3 of 9 (4.28) |
| HSSESVLYESRNKNSVA | WASTRES | QQYHHLPLS | 0.52 / 0.67 / 0.64 | 0.61 | 1 of 9 (4.50) |
| KSSQSVLYESKNKNSVA | WASTRES | QQYHRLPLS | 1.23 / 1.33 / 1.24 | 1.27 | 1 of 9 (3.39) |

Parent in this assay: reference entry 0.65, copy in this library 1.68.

From the AlphaSeq antibody data of Engelhart et al. 2022 (doi:10.1038/s41597-022-01779-4), copy in the FLAb collection.